# Source: patent US20050010126A1, “Assessment of concentration of inhalational compounds in the brain” (priority 2001, published 2005)
# Assay: assessment of mixed venous and brain anesthetic concentration from inspired and expired concentrations
# Conditions: desflurane; inspired 6.2%, expired 5.4%, M 0.2
# Source text: At the stage of anesthesia (after the FRC is filled with the gas), the equation: Ci′−Ce′=M (Ci′−Cb′) can be used to calculate the compound concentration in the mixed venous blood (Cb′), in which Ci′ and Cb′ are the inspired compound concentration and the expired compound concentration, respectively: Cb′=[Ci′(M−1)+Ce′]/M.
# As discussed above, Cb=(A+J)/2 and (A+J)/2=(Ce′+2Cb′)/3 or (Ce′+3Cb′)/4, the compound concentration in the brain (Cb) can be expressed as: Cb=(Ce′+2Cb′)/3 or (Ce+3Cb′)/4.
# Thus, with measurements of the expired compound concentration (Ce′) and the mixed venous compound concentration (Cb′), the compound concentration in the brain (Cb) can be readily obtained. Below are two examples of how to assess brain anesthetic concentrations by this method.
# A tube is connected to the circle system of an anesthesia machine consisting of gas flowmeters, a compound vaporizer, supply of oxygen, air and nitrous oxide gas, and a ventilator (e.g., Detex-Ohmeda, Finland, or Drager, Germany). The gas is then delivered to the patient by the anesthesia machine. […] Near the connection between the circle system and the tube, a side arm sampling site is linked to a gas monitoring equipment (e.g., an infra-red monitor or a mass spectrometer). Typically, a sampling speed is 200 mL/min. […]
structure (smiles),measurement,value
FC(F)OC(F)C(F)(F)F (stereo not shown) [desflurane],concentration in the mixed venous blood (Cb'),2.2%
